This note sets out measurements from BindingDB's records for doi:10.1073/pnas.90.8.3452 (The Scripps Research Institute, 1993).

Amino acid sequences for entries named in this document (tags omitted).
UniProt P35365, whole entry: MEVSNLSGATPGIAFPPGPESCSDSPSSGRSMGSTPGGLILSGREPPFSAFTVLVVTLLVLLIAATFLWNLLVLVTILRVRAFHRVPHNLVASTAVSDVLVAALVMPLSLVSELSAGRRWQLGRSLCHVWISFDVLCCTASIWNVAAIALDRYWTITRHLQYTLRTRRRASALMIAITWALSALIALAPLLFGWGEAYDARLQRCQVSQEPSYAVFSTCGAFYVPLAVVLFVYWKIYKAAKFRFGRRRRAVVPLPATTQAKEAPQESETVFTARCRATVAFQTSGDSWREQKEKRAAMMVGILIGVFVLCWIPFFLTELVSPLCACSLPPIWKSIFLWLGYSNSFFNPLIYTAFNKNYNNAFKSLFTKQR

The assay has as its target 5-hydroxytryptamine receptor 5B (Rattus norvegicus, UniProt P35365).

The molecule `COC(=O)[C@@H]1[C@H]2C[C@H]3c4[nH]c5ccccc5c4CCN3C[C@@H]2CC[C@@H]1O` [yohimbic acid methyl ester] yielded a Ki of 1000 nM.
